# System: classical Hodgkin lymphoma cells including L-1236, L428, KM-H2, HDLM-2, U-HO1, and SUP-HD1 cells
# Experiment: Cell growth of classical Hodgkin lymphoma cells in culture
# Assay type: cell-based
# Settings: different concentrations
smiles,measurement,value
Cc1occc1C(=O)Nc1nn(Cc2ccc(C(F)(F)F)cc2)c2ccccc12 [NP-G2-044],effect on cell growth,did not observe an inhibitory effect

# Reference: article PMC7466159, “Anti-Metastasis Fascin Inhibitors Decrease the Growth of Specific Subtypes of Cancers” (Cancers, 2020)
